# Binding of CDR-mutated scFvs to a peptide of the spike HR2 region

Target: peptide PDVDLGDISGINAS, taken from heptad repeat 2 (HR2) of SARS-CoV-2 spike.

Ab-14 is the parent antibody, in scFv form: VH, then a (GGGGS)3 linker, then VL. The heavy chain is unchanged in all variants.
VH: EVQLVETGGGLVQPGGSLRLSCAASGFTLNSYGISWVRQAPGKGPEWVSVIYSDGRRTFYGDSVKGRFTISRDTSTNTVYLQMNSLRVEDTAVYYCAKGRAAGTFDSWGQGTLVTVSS
VL: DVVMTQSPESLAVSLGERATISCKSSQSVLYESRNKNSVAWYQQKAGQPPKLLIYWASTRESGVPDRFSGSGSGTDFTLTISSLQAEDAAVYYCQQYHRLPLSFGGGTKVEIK

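The parent was found by panning a naive human phage display library on the peptide. Designed CDR sequences, proposed from the first random library and measured here. Group labels follow the data file (En: ensemble of fine-tuned language models; GP: Gaussian process model; HC: hill climbing; Gen: genetic algorithm; Gibbs: Gibbs sampling; a sequence that several methods proposed may carry one label only). AlphaSeq pools MATa yeast showing the antibodies with MATalpha yeast showing the peptide. Mating (16 h, 30 °C) was followed by selection of diploids and sequencing of their barcodes. A regression on co-assayed BCL2-family reference pairs converts the normalised counts of each replicate to an apparent Kd. The assay was run in six technical replicates.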

Variants are written as CDR1, CDR2 and CDR3 of the light chain (limits as in the source). Parent: KSSQSVLYESRNKNSVA, WASTRES, QQYHRLPLS. Variants here have more than six changes. Kd is apparent (estimated from mating counts) and averaged on the log scale over replicates with a signal. Smaller is tighter. A pair that was not seen in any replicate is written "nd"; this usually means weak binding, but a binder can also be missed. A sequence measured in both rounds can read differently, since the two assays cover different ranges. The authors averaged sequences with at least three values out of six and counted those with two or fewer as poor binders. Three control strains display no target. For all light chain designs, 4% of the pairings with them gave a signal, with a median of 430 nM and one signal in twenty below 38 nM, so weak values seen in few replicates may be background. The control count says in how many pairings with the empty strains this scFv gave a signal.

For KWQKDSLGQEQYQNNIA / NQDLRTA / QQYYMLPLT [En_Gibbs], the assay gave 4.5 nM (6 of 6 replicates; controls 2 of 18). The variant HMSAVTMMGMRQRNSVA / QMTMREN / QQYDRLPLA [En_Gen] gave 110 nM (6 of 6 replicates; controls 1 of 18). With MLSDLNKMGVRNTQSVA / DNSTRGQ / QQYDRLPLS [En_HC] the result was 3.1 nM (6 of 6 replicates; controls 0 of 18). For IVSQLMLWGMHAKNSIA / EAETRIN / QQYERLPLF [En_Gen], the assay gave 230 nM (4 of 6 replicates; controls 0 of 18). For KFSQQVLYESRQKNSVA / NASQRLE / QQYHRLPLS [GP_Gibbs], the assay gave 1.2 nM (6 of 6 replicates; controls 2 of 18). The variant KSSQSVMGEDWNKNSVA / HASVRES / QQYHRLPLM [GP_Gibbs] showed 3.4 nM (6 of 6 replicates; controls 2 of 18).

The variant KISMSMLMESFHKNSVA / ENSTREE / QHYHRLPLS [En_HC] gave nd (0 of 6 replicates; controls 0 of 18). The variant KIGMTLNQMMHKKNNVA / DLVMREN / QQYHRLPLS [En_Gen] gave 2.6 nM (6 of 6 replicates; controls 0 of 18). For KVYWGVDYEDRNKNSVA / HASQRES / QQYHRLPLS [GP_Gibbs], the assay gave 5.2 nM (6 of 6 replicates; controls 1 of 18). With MITESVMYESRNRNSVA / DNSTRED / QCYDRLPLS [En_HC] the result was 4.9 µM (4 of 6 replicates; controls 1 of 18). The variant KLRQSTGYEMRNKDSIA / DNSTRGR / QQYHRLPLS [En_HC] showed 420 nM (3 of 6 replicates; controls 0 of 18). The variant KVSNQADYEDRNKNAVA / DASTRES / QQYHRLPLS [GP_Gibbs] showed 1.3 nM (6 of 6 replicates; controls 4 of 18).

The variant KLTMITGLEKVSKNNVA / EMETREK / QQYNRLPLS [En_Gen] showed 1.9 nM (6 of 6 replicates; controls 0 of 18). For RLMGWGPDQIQHANSIA / DRDEVDM / QQYAHLPLS [En_Gibbs], the assay gave 15 nM (6 of 6 replicates; controls 0 of 18). For LLSQSVLLESRNWNAVA / HASTRMD / QQYHRLPLS [GP_Gibbs], the assay gave 800 pM (6 of 6 replicates; controls 0 of 18). For KITTTMRFEQKNTNNIA / EVSTRSK / QQYVRLPLA [En_Gen], the assay gave 750 pM (6 of 6 replicates; controls 1 of 18). For KLPQATMQESVSKNNVA / ELSTRGS / QQYHRLPLS [En_HC], the assay gave 9.9 nM (6 of 6 replicates; controls 0 of 18). The variant MISNVMNTLTRQGNNVA / DLQERED / QQYFRLPLS [En_Gen] gave 640 pM (6 of 6 replicates; controls 0 of 18).

The variant TLVDWIQGGTWAKKNVA / DEQTRVN / QQYYRLPLS [En_Gibbs] gave 3.2 nM (6 of 6 replicates; controls 0 of 18). The variant IVSQLMLWGMHAKNSIA / EAVTRLN / QQYDRLPLF [En_Gen] gave nd (0 of 6 replicates; controls 0 of 18). The variant KIQQSMLYESRNSNSVA / NASTRMD / QQYHRLPLM [GP_Gibbs] gave 1.5 nM (6 of 6 replicates; controls 2 of 18). With KLSPSVEYESRLKNSVA / NASTRLE / QQYHRLPLS [GP_Gibbs] the result was 2.6 nM (6 of 6 replicates; controls 1 of 18). The variant KLQQSWGYQSRNKNSVA / NASTREW / QQYHRLPLS [GP_Gibbs] gave 18 nM (6 of 6 replicates; controls 0 of 18). The variant KLQQSWMMQERNKNSVA / HASMRLS / QQYHRLPLS [GP_Gibbs] gave 6.7 nM (6 of 6 replicates; controls 0 of 18).

With KISQMQRVGSTHNNSIA / EEQTRAK / QQYHRLPLS [En_Gen] the result was 57 nM (6 of 6 replicates; controls 0 of 18). The variant KWQQSWLQSSRNKNSVA / NASERES / QQYHRLPLS [GP_Gibbs] gave 1.7 nM (6 of 6 replicates; controls 3 of 18). The variant QITMLLNFESYKINNVA / QMETRVN / QQYDRLPLS [En_Gen] gave 5.3 nM (5 of 6 replicates; controls 0 of 18). The variant KIMQSLNYEQFNVSNVA / GQETREE / QSYHRLPLS [En_HC] showed 680 nM (6 of 6 replicates; controls 1 of 18). The variant KMSQEAMMLSRNWNSVA / QASTREQ / QQYHRLPLS [GP_Gibbs] gave 1.2 nM (6 of 6 replicates; controls 1 of 18). For TISMSMNWLTRNKNSIA / EESTRED / QQYDRLPLM [En_HC], the assay gave 8.5 nM (6 of 6 replicates; controls 0 of 18).

The variant KISQNMGETQRNKHSVA / EVSLVPS / QQYWRLPLS [En_HC] gave 78 nM (5 of 6 replicates; controls 1 of 18). The variant HFAYQLQSLYVSKQNVA / NASTVMT / QHYNRLPLS [En_Gibbs] showed 44 nM (6 of 6 replicates; controls 0 of 18). For KLEGSVEMESRWKNSVA / HASTRES / QQYHRLPLS [GP_Gibbs], the assay gave 2.8 nM (6 of 6 replicates; controls 1 of 18). For KIGLVTNGISFSKNNVA / EQSTREN / QQYDRLPLS [En_HC], the assay gave 6.5 nM (6 of 6 replicates; controls 1 of 18). The variant QLQLQPGTGLNAQHSIA / DVSAKDM / QQYARLPLH [En_Gibbs] showed 3.2 nM (6 of 6 replicates; controls 0 of 18). With QLPFYRGDGYLQKNNVA / EGTESSH / QQYMRLPLT [En_Gibbs] the result was nd (0 of 6 replicates; controls 0 of 18).

With KIAEQIMHVYIGANAIA / DATVRSA / QQYLRLPLM [En_Gibbs] the result was 52 nM (5 of 6 replicates; controls 0 of 18). The variant KMTEQLLNGEREPSNIA / AQVIGSD / QQYHRLPLI [En_Gibbs] showed nd (0 of 6 replicates; controls 2 of 18). The variant KLNMLTGLETKNRNSVA / QMTTREE / QQYNHLPLS [En_Gen] gave 850 pM (6 of 6 replicates; controls 0 of 18). The variant SLELFSLSGDLPWNAVA / DEVVKLA / QQYFRLPLH [En_Gibbs] gave 25 nM (5 of 6 replicates; controls 0 of 18). The variant KLSMSELYESRMKNSVA / EASQREE / QQYHRLPLS [GP_Gibbs] gave 850 pM (6 of 6 replicates; controls 0 of 18). The variant MIAQMLGWESNKINSVA / QANLRTE / QQYDRLPLE [En_Gen] showed 68 nM (6 of 6 replicates; controls 0 of 18).

The variant TISQLMNMGQFAINSVA / QASIRNM / QQYDRLPLM [En_Gen] gave 13 nM (4 of 6 replicates; controls 0 of 18). The variant MISQLMNMGTFAINSVA / QASLRNE / QQYDRLPLT [En_Gen] gave 100 nM (5 of 6 replicates; controls 0 of 18). The variant QFDQSYRVGALNTDSIA / HAEMRVQ / QSYNRLPLM [En_Gibbs] gave 6.6 nM (6 of 6 replicates; controls 1 of 18). For LISQSSLYEQRNKNSVA / DASQRLS / QQYHRLPLS [GP_Gibbs], the assay gave 1.0 nM (6 of 6 replicates; controls 1 of 18). The variant MVNMHDEGFKGHKDNIA / NAATKEG / QHYGRLPLS [En_Gibbs] gave 17 nM (5 of 6 replicates; controls 0 of 18). The variant MIAQGLRGMGRNKNSVA / NAQTRES / QHYHRLPLS [En_HC] showed 1.3 µM (2 of 6 replicates; controls 0 of 18).

With KIQPHLQQSFASKNNVA / DRQLSAE / QQYNRLPLV [En_Gibbs] the result was 3.0 nM (6 of 6 replicates; controls 0 of 18). With KWSCSQLYDSQNKNSVA / NASTREM / QQYHRLPLS [GP_Gibbs] the result was 2.4 nM (6 of 6 replicates; controls 2 of 18). With TISQVMNTMTRHGNNVA / DLTERED / QQYFRLPLS [En_Gen] the result was 1.9 nM (6 of 6 replicates; controls 1 of 18). For TLMMQPTEQRDNKHAVA / DNNQRDR / QQYMRLPLS [En_Gibbs], the assay gave 910 pM (6 of 6 replicates; controls 2 of 18).

Excerpt, the final 8 entries:

CDR-L1	CDR-L2	CDR-L3	group	Kd	replicates with signal	signal with controls
QFDQSYRVGALNTDSIA	HAEMRVQ	QSYNRLPLM	En_Gibbs	6.6 nM	6/6	1/18
LISQSSLYEQRNKNSVA	DASQRLS	QQYHRLPLS	GP_Gibbs	1.0 nM	6/6	1/18
MVNMHDEGFKGHKDNIA	NAATKEG	QHYGRLPLS	En_Gibbs	17 nM	5/6	0/18
MIAQGLRGMGRNKNSVA	NAQTRES	QHYHRLPLS	En_HC	1.3 µM	2/6	0/18
KIQPHLQQSFASKNNVA	DRQLSAE	QQYNRLPLV	En_Gibbs	3.0 nM	6/6	0/18
KWSCSQLYDSQNKNSVA	NASTREM	QQYHRLPLS	GP_Gibbs	2.4 nM	6/6	2/18
TISQVMNTMTRHGNNVA	DLTERED	QQYFRLPLS	En_Gen	1.9 nM	6/6	1/18
TLMMQPTEQRDNKHAVA	DNNQRDR	QQYMRLPLS	En_Gibbs	910 pM	6/6	2/18

Values reported by Li et al. 2023, doi:10.1038/s41467-023-39022-2 (FLAb copy).